Columns and labels:
A549 cells = assay: A549 proliferation (viability) assay, Cell Titer Fluor, 72 hours; settings: read-out: A549 EC50
Experimental: A549 cells were routinely maintained in RPMI 1640 media (Gibco catalog number 11875-093) supplemented with 10% dialyzed fetal bovine serum using a humidified incubator (37° C., 5% CO2 and ambient O2). In preparation for the viability assay, cells were inoculated into 384-well black CulturPlates (Perkin Elmer) at a density of 1000 cells/well in a volume of 40 uL. Following a 24-hour incubation at 37° C., 5% CO2 and ambient O2, cells were treated with compound (10 uL) in a final DMSO concentration of 0.5% (v/v). The microplates were then incubated for 72 hours (37° C., 5% CO2 and ambient O2). Cell Titer Fluor (Promega) was subsequently added (10 uL of 6× reagent) and mixed for 15 minutes at room temperature. The plates were then incubated for 30 minutes (37° C., 5% CO2 and ambient O2) and fluorescence was subsequently read on the Perkin Elmer Envision plate reader. EC50 values were calculated using a four-parameter logistic curve fit.

Chains of the proteins cited; added tags and fusions are not shown. Residues count along the entry.
UniProt O94925, 55-598 isoform 3 limits assumed: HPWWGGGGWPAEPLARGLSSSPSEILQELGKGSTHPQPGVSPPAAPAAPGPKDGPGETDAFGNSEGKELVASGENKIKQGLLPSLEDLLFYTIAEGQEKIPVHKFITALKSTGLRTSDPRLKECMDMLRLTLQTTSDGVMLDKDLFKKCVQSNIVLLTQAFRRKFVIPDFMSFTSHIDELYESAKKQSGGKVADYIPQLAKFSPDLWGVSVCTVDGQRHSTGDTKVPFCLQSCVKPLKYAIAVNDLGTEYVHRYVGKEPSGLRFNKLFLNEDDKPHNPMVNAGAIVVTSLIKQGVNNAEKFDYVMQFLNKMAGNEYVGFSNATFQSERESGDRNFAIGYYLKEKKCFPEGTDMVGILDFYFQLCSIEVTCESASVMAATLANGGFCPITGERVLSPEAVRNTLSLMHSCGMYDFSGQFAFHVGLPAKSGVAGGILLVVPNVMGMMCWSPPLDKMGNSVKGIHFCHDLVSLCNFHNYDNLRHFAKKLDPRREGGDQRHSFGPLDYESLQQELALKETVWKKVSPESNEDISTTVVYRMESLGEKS

[1] = target: GLS1 (purified recombinant human GAC) (Homo sapiens, UniProt O94925); assay: GLS1 enzymatic activity assay (dual-coupled, Amplex UltraRed/resorufin); settings: read-out: GLS1 IC50
Experimental: GLS1 Enzymatic Activity Assay
The inhibition of purified recombinant human GAC by varying concentrations of inhibitors is assessed via a dual-coupled enzymatic assay. The glutamate produced by the glutaminase reaction is used by glutamate oxidase to produce α-ketoglutarate, ammonia, and hydrogen peroxide, with this hydrogen peroxide subsequently being used by horseradish peroxidase to produce resorufin in the presence of Amplex UltraRed. The assay buffer consisted of 50 mM Hepes (pH 7.4), 0.25 mM EDTA and 0.1 mM Triton X-100. GAC was incubated with potassium phosphate (10 minutes at room temperature) prior to incubation with inhibitor (10 minutes at room temperature). The final reaction conditions were as follows: 2 nM GAC, 50 mM potassium phosphate, 100 mU/mL glutamate oxidase (Sigma), 1 mM glutamine (Sigma), 100 mU/mL horseradish peroxidase (Sigma), 75 μM Amplex UltraRed (Life Technologies), and 1% (v/v) DMSO. The production of resorufin was monitored on a Perkin Elmer Envision plate reader (excitation 530 nm, emission 590 nm) either in a kinetics or endpoint mode (at 20 minutes). IC50 values were calculated using a four-parameter logistic curve fit.

With `CC(=O)O[C@H](C(=O)Nc1ccn(CCCCn2cc(C(=O)NCc3cccc(OC(F)(F)F)c3)nn2)c(=O)c1)c1ccccc1` the EC50 (A549 cells) was 100 to 500 nM and the IC50 [1] was < 100 nM.

From patent US20160002204A1 (Board of Regents, The University of Texas System, priority 2014, published 2016)
